Measurements taken from patent publication US20110092490A1, “PYRIMIDINES, TRIAZINES AND THEIR USE AS PHARMACEUTICAL AGENTS” (THE UNIVERSITY OF NOTTINGHAM, priority 2008, published 2011).

Columns and labels:
[1] = test system: HCT-116; assay: 72-h MTT cytotoxicity assay; conditions: Homo sapiens, HCT-116, 72 h, read-out: Cytotoxicity GI50 HCT116
[2] = 72-h MTT cytotoxicity assay; conditions: human

## CNc1nc(C)c(-c2nc(Nc3cccc(O)c3)ncc2C#N)s1 [Example 1.3, 2-(3-Hydroxy-phenylamino)-4-(4-methyl-2-methylamino-thiazol-5-yl)-pyrimidine-5-carbonitrile]
[1]
  GI50: 30 nM
[2]
  GI50 at 72 h: 540 nM
